Columns and labels:
EGFRt [1] = assay: Erbitux staining of EGFRt on CD8^+ DB5 CAR T-cells; conditions: S1D11
EGFRt [2] = assay: Erbitux staining of EGFRt on CD4^+ DB5 CAR T-cells; conditions: S1D11

Substance: Erbitux: biotinylated Erbitux antibody staining EGFRt
- Erbitux staining for EGFRt (EGFRt [1]): > 94%
- Erbitux staining for EGFRt (EGFRt [2]): > 95%
